In ChEMBL document CHEMBL5365417, “The development of diphenyleneiodonium analogs as GPR3 agonists” (Bioorg Med Chem Lett, 2023):
The source made the active and inactive calls.

Sequences of proteins named here, by UniProt entry; tags and fusion partners are left off.
UniProt P46095, whole entry R220Y: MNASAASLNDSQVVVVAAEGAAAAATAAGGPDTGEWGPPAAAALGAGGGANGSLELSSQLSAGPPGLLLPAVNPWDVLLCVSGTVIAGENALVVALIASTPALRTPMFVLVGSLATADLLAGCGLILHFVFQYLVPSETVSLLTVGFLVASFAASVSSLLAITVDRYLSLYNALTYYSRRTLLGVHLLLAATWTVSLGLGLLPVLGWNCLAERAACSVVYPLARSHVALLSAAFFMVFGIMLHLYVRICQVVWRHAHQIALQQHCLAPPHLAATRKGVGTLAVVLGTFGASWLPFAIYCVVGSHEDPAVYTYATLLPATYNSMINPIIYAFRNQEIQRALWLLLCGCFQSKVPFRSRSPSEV

Legend:
Format in all cases: functional, cell-based
[1] = test system: G-protein coupled receptor 6 (Homo sapiens), P46095 [R220Y]; assay: Agonist activity at human GPR6 R220Y mutant in ECL2 expressed in HEK293 cells assessed as increase in cAMP accumulation incubated for 30 mins by HTRF assay
[2] = molecular target: G-protein coupled receptor 6 (Homo sapiens) (UniProt P46095); assay: Agonist activity at human GPR6 expressed in HEK293 cells assessed as increase in cAMP accumulation at 10 uM incubated for 30 mins by HTRF assay
[3] = molecular target: T1, G-protein coupled receptor 12 (Homo sapiens) (UniProt P47775); assay: Agonist activity at human GPR12 expressed in HEK293 cells assessed as increase in cAMP accumulation at 10 uM incubated for 30 mins by HTRF assay
T1 sequence (whole entry): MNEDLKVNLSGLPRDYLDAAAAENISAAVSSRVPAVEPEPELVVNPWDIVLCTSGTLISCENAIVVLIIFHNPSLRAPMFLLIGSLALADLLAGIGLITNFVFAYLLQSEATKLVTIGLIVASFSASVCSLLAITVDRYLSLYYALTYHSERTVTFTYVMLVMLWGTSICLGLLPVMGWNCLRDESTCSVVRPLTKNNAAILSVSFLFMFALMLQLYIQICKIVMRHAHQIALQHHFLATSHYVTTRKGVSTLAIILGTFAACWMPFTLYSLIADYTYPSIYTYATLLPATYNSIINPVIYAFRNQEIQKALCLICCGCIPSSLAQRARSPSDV

Measured: Activity

FC(F)(F)Oc1ccc2c(c1)[I+]c1ccccc1-2
inactive: all assays above
